Binding of CDR-mutated scFvs to a peptide of the spike HR2 region

The target is the same throughout: PDVDLGDISGINAS, from the HR2 region of SARS-CoV-2 spike.

Each scFv is VH, the linker GGGGSGGGGSGGGGS, VL, as in the parent Ab-14, and differs from it in the CDRs of the light chain only.
VH: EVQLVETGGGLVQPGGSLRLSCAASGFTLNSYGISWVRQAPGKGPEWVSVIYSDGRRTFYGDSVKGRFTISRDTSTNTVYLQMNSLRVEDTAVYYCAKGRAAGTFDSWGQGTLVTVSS
VL: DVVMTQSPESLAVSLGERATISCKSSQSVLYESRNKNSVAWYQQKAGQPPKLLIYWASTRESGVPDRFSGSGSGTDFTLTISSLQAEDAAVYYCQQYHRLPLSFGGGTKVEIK

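Library AAYL50 holds single substitutions and randomly drawn double and triple substitutions in the CDRs. The assay is AlphaSeq: two haploid yeast populations carry antibody and antigen on their surface. Pairs that bind mate more often; barcode pairs of the diploids are counted by sequencing. The ratio of observed to expected reads was calibrated, replicate by replicate, on BCL2-family standards whose Kd was known from biolayer interferometry. Each pool was mated in three replicate cultures.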

Positions count from residue 1 of the parent VL; S33V puts V in place of S. Values are log10 of the apparent Kd in nM; lower means stronger binding. Averages over replicates are reported, and they cover detected replicates only. Where no diploid with the target was found in any replicate, the entry reads "no signal": below detection, most likely a poor binder, though not proof of it. As a blank, each scFv also met three strains without target: over library AAYL50, 18% of these pairings were detected, typically at 4.19 and seldom below 2.99. For reference, the parent read 0.65 as the reference entry and 1.68 as a member of this library.

changes | mean, log10 nM | replicates with signal
S33V+T59Y+Y97S | 3.44 | 2/3
Y31M+R34Q+S58V | 0.75 | 3/3
S25W+Y97G+H98Y | 0.96 | 3/3
S26E+S28M+S103I | 3.11 | 1/3
S28D+V29F+P101M | no signal | 0/3
S28F+Y97W+R99A | no signal | 0/3
K24L+N35V+E61I | 3.94 | 2/3
V29F+K36Q+E61K | 3.03 | 2/3
S26W+E61A+H98F | 0.19 | 3/3
E32V+A40G+E61Y | no signal | 0/3
W56C+S58N+E61M | 0.94 | 3/3
K24M+V39W+S62F | no signal | 0/3
S28G+Y31G+S58K | 1.60 | 3/3
S33A+A57S+H98A | 0.86 | 3/3
S28L+E61N+Y97K | 0.62 | 3/3
N35D+A57P+E61D | 1.05 | 3/3
S28Y+V29E+Y31M | 0.68 | 3/3
S28V+E32P+A40I | no signal | 0/3
S26N+R60A+R99Y | 4.44 | 2/3
S25Q+S26W+Y97I | no signal | 0/3
V29S+A40C+H98Q | no signal | 0/3
N37T+A57P+L102R | 4.49 | 1/3
Q27N+L30M+N35T | 0.84 | 3/3
A40L+Y97F+R99M | no signal | 0/3
K24C+N37A+T59Y | no signal | 0/3
R60E+L100Y+P101S | no signal | 0/3
E61D+S62Y+L102V | 3.87 | 1/3
V29L+P101R+L102Q | 3.94 | 1/3

Continued, with the values leading:

mean, log10 nM | replicates with signal | changes
no signal | 0/3 | N35Q+Q95V
no signal | 0/3 | N37M+T59G+L102T
0.89 | 3/3 | S33T+S62N+Q95V
3.39 | 1/3 | Q96K+P101H+S103D
1.79 | 3/3 | L30P+H98G+R99F
no signal | 0/3 | N35K+A40F+S62N
no signal | 0/3 | E61P+S62E+L100P
4.89 | 2/3 | N35K+A40N+L102H
5.67 | 1/3 | S33Y+N37L+T59A
4.16 | 1/3 | L100P+L102S+S103C
2.85 | 1/3 | K24L+Y31P+E32T
no signal | 0/3 | S26E+S28H+N37I
no signal | 0/3 | S38W+Q95I+P101I
1.46 | 3/3 | L30K+S38Y+W56G
3.60 | 3/3 | Y31F+A57I+R99H
0.86 | 3/3 | W56L+E61M
0.97 | 3/3 | V29T+R99Q
2.57 | 3/3 | S25W+N37G+H98K
2.56 | 3/3 | T59V+E61P+S62R
2.60 | 2/3 | Q27C+A40C+Y97V
no signal | 0/3 | S26V+A40D+S62A
1.35 | 3/3 | L30E+N37T
1.19 | 3/3 | E61T+Q96S+L102R
3.84 | 3/3 | N35P+T59I+R99E
4.48 | 1/3 | E32Q+R60A+Y97W
no signal | 0/3 | N37V+A40W+H98W
0.69 | 3/3 | V29A+Y31P+E61C
3.07 | 3/3 | S28F+R34C+R99A
2.18 | 3/3 | K24D+Y31G+S62W

Picked from the list: the 4 lowest averages where every replicate gave a value.

changes | mean, log10 nM | replicates with signal
S26W+E61A+H98F | 0.19 | 3/3
S28L+E61N+Y97K | 0.62 | 3/3
S28Y+V29E+Y31M | 0.68 | 3/3
V29A+Y31P+E61C | 0.69 | 3/3

Data: MIT Lincoln Laboratory AlphaSeq set, Engelhart et al. 2022, doi:10.1038/s41597-022-01779-4, as distributed in FLAb.